Sequences of proteins named here, by UniProt entry; tags and fusion partners are left off. A line that says so, or that is headed by a name, gives the form on record, which may keep a tag or linker.
UniProt Q9BUB5, with tags, fused parts or gaps T344D limits assumed: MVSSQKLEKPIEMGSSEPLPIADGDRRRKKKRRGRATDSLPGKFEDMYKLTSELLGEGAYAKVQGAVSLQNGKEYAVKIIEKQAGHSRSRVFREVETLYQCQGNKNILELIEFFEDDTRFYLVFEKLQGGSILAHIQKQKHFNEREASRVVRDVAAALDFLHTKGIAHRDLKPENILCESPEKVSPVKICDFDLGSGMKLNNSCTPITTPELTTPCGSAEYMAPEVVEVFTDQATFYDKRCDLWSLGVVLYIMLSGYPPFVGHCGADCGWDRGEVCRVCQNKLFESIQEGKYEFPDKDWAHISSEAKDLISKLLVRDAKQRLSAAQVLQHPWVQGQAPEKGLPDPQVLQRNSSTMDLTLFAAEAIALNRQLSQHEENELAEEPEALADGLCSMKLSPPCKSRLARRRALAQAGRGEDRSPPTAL

In patent publication US11311520B2, “Substituted dihydroimidazopyridinediones as MKNK1 and MKNK2 inhibitors” (Bayer Pharma Aktiengesellschaft, priority 2017, dated 2022):

Target: human full-length MKNK1 (Homo sapiens (Human), UniProt Q9BUB5, T344D)
Test: MKNK1 kinase high ATP assay (TR-FRET)
Conditions: read-out: MKNK1 IC50, 2 mM ATP, 15 min preincubation with enzyme, GST-MKNK1 (T344D)
Procedure: MKNK1 Kinase High ATP Assay
MKNK1-inhibitory activity at high ATP of compounds of the present invention after their preincubation with MKNK1 was quantified employing the TR-FRET-based MKNK1 high ATP assay as described in the following paragraphs.
A recombinant fusion protein of Glutathione-S-Transferase (GST, N-terminally) and human full-length MKNK1 (amino acids 1-424 and T344D of accession number BAA 19885.1), expressed in insect cells using baculovirus expression system and purified via glutathione sepharose affinity chromatography, was purchased from Carna Biosciences (product no 02-145) and used as enzyme. As substrate for the kinase reaction the biotinylated peptide biotin-Ahx-IKKRKLTRRKSLKG (SEQ ID NO: 1) (C-terminus in amide form) was used, which can be purchased e.g. from the company Biosyntan (Berlin-Buch, Germany) […]
The resulting mixture was incubated for 1 h at 22° C. to allow the formation of complex between the phosphorylated biotinylated peptide and the detection reagents. Subsequently the amount of phosphorylated substrate was evaluated by measurement of the resonance energy transfer from the Eu-chelate to the streptavidine-XL. Therefore, the fluorescence emissions at 620 nm and 665 nm after excitation at 350 nm were measured in a TR-FRET reader, e.g. a Rubystar (BMG Labtechnologies, Offenburg, Germany) or a Viewlux (Perkin-Elmer). […]

## Cc1cc(Nc2ncnc3scnc23)c(=O)n2c1C(=O)NC21CCC1
  IC50: 11.6 nM
